Target: Carbonic anhydrase 5A, mitochondrial (Homo sapiens) (UniProt P35218)

Chains of the proteins cited; added tags and fusions are not shown. Lines headed by an entry give the natural chain unless they say otherwise; changes in a name come on top.
UniProt P35218: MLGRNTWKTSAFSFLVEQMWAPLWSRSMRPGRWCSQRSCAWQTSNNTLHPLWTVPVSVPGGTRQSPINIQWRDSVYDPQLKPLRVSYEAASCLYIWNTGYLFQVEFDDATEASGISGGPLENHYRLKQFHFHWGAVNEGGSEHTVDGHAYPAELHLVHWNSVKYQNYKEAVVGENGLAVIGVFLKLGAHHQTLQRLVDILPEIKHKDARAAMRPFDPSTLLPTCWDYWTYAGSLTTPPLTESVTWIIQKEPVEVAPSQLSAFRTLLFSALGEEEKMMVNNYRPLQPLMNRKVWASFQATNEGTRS

`NS(=O)(=O)c1cc(C(=O)O)c(NCc2ccco2)cc1Cl` was tested, and the Ki was 499 nM.

Reference: ChEMBL document CHEMBL1144796, “Carbonic anhydrase inhibitors. Interaction of indapamide and related diuretics with 12 mammalian isozymes and X-ray crystallographic studies for the indapamide-isozyme II adduct” (Bioorg Med Chem Lett, 2008)
